# AlphaSeq binding of Ab-14 heavy chain variants to a spike HR2 peptide

Source: Engelhart et al. 2022 (doi:10.1038/s41597-022-01779-4), MIT Lincoln Laboratory and A-Alpha Bio; data file from the FLAb repository.

All variants were tested on one target, the spike HR2 peptide PDVDLGDISGINAS (SARS-CoV-2).

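Phage display of a naive human antibody library on the peptide gave the parent. Variants in AAYL49 differ from the parent at up to three CDR positions; double and triple changes were sampled at random. Affinity was read by AlphaSeq, a pooled yeast mating assay with surface-displayed partners. The frequency of each diploid, read from paired DNA barcodes, reflects how well the two displayed proteins bind. Each replicate has its own calibration line, from reference interactions of the BCL2 family. The assay was run in three technical replicates.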

Parent scFv Ab-14: VH joined to VL by a 15-residue (Gly4Ser)3 linker. Changes lie in the heavy chain CDRs alone.
VH: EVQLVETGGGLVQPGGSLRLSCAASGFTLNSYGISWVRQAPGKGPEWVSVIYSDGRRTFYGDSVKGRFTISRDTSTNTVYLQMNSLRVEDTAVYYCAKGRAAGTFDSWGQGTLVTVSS
VL: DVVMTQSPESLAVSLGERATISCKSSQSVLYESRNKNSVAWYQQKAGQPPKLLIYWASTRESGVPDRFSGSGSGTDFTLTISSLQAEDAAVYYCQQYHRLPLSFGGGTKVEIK

Substitutions are numbered in sequence along the VH above, starting at 1 (not Kabat). Scale: log10 of Kd in nM, estimated from mating counts; low values are strong binders. Replicates are averaged; those with no signal do not enter the mean. Where no diploid with the target was found in any replicate, the entry reads "no signal": below detection, most likely a poor binder, though not proof of it. As a blank, each scFv also met three strains without target: over library AAYL49, 15% of these pairings were detected, typically at 4.06 and seldom below 2.83. Also given: how often the same scFv was detected with the empty control strains.

| changes | mean log10 Kd (nM) | replicates with signal | signal with controls |
|---|---|---|---|
| Y60E+R100H | 4.72 | 3 of 3 | 6 of 9 |
| S31F+R56K+T104K | 4.08 | 3 of 3 | 5 of 9 |
| Y32V+V50T+T58Y | no signal | 0 of 3 | 0 of 9 |
| T28A+G103A | 1.77 | 3 of 3 | 3 of 9 |
| S35Y+R57H+A101C | no signal | 0 of 3 | 0 of 9 |
| F27N+S53C+S63F | no signal | 0 of 3 | 0 of 9 |
| Y32F+R100H | 0.82 | 3 of 3 | 0 of 9 |
| G33H+T58H+F105Y | no signal | 0 of 3 | 0 of 9 |
| D54A+S63R+V64N | no signal | 0 of 3 | 1 of 9 |
| G33C+G103M+D106P | 4.22 | 2 of 3 | 2 of 9 |
| G26R+Y52I+G99K | 3.92 | 1 of 3 | 5 of 9 |
| A101R+T104G+F105W | 3.78 | 1 of 3 | 2 of 9 |
| D54Y+K65D+G103S | no signal | 0 of 3 | 0 of 9 |
| Y32H+Y60K+G99H | no signal | 0 of 3 | 1 of 9 |
| T28G+G61Q+D62Q | 1.39 | 3 of 3 | 3 of 9 |
| T58P+G61N+R100Y | 3.13 | 1 of 3 | 0 of 9 |
| D54S+R57A | 4.44 | 2 of 3 | 3 of 9 |
| S35R+A101Q+A102D | no signal | 0 of 3 | 0 of 9 |
| G55C+Y60P+G103Q | 4.73 | 1 of 3 | 3 of 9 |
| R57S+G103D+D106P | 1.49 | 3 of 3 | 0 of 9 |
| F27I+N30C+R57F | no signal | 0 of 3 | 2 of 9 |
| S31A+D62F+T104L | no signal | 0 of 3 | 0 of 9 |
| F27L+Y32G+D62P | 3.96 | 1 of 3 | 3 of 9 |
| G33I+S35R+D106R | no signal | 0 of 3 | 0 of 9 |
| S53W+S107Q | 1.73 | 3 of 3 | 0 of 9 |
| S53H+A101P | 2.63 | 1 of 3 | 0 of 9 |
| Y60S+V64C+S107P | no signal | 0 of 3 | 0 of 9 |

Continued, with the values leading:

| mean log10 Kd (nM) | replicates with signal | signal with controls | changes |
|---|---|---|---|
| no signal | 0 of 3 | 0 of 9 | T28Y+F105A+D106I |
| 5.27 | 1 of 3 | 4 of 9 | A101S+A102M+F105V |
| 4.60 | 1 of 3 | 0 of 9 | D54I+R57T+K65D |
| 4.47 | 1 of 3 | 2 of 9 | G26F+S35T+G61S |
| 3.80 | 1 of 3 | 3 of 9 | N30Y+D62C+D106H |
| 4.06 | 1 of 3 | 0 of 9 | F27Y+V50R |
| no signal | 0 of 3 | 3 of 9 | N30W+G61C+V64F |
| no signal | 0 of 3 | 2 of 9 | L29W+G33V+G99F |
| 1.87 | 2 of 3 | 1 of 9 | S31G+T58E+G61V |
| no signal | 0 of 3 | 2 of 9 | G26N+I34L+T58N |
| no signal | 0 of 3 | 0 of 9 | D54P+V64G+A102L |
| no signal | 0 of 3 | 2 of 9 | I34H+T58A+F105A |
| 4.99 | 1 of 3 | 1 of 9 | Y52I+Y60T+S107C |
| no signal | 0 of 3 | 0 of 9 | N30T+R56E |
| no signal | 0 of 3 | 0 of 9 | G33K+Y60P+K65P |
| no signal | 0 of 3 | 0 of 9 | L29A+S35I+G99W |
| no signal | 0 of 3 | 1 of 9 | N30V+Y52A+V64E |
| no signal | 0 of 3 | 2 of 9 | S53L+G103D+S107M |
| 2.31 | 3 of 3 | 0 of 9 | G26A+F27C+R56N |
| 3.78 | 1 of 3 | 2 of 9 | L29P+D54Q+T104C |
| 1.78 | 3 of 3 | 1 of 9 | A102M+T104Q+S107E |
| 3.08 | 2 of 3 | 0 of 9 | N30Y+S53W+R56V |
| 5.06 | 1 of 3 | 3 of 9 | Y32T+R57G+R100T |
| 5.00 | 1 of 3 | 1 of 9 | G26D+I51C+A101N |
| 4.96 | 3 of 3 | 6 of 9 | I34H+S53Q+R57D |
| 4.76 | 3 of 3 | 4 of 9 | D54Q+G61K+T104N |
| no signal | 0 of 3 | 1 of 9 | G26F+F59I+F105V |

Excerpt, the first 7 entries:

| changes | mean log10 Kd (nM) | replicates with signal | signal with controls |
|---|---|---|---|
| Y60E+R100H | 4.72 | 3 of 3 | 6 of 9 |
| S31F+R56K+T104K | 4.08 | 3 of 3 | 5 of 9 |
| Y32V+V50T+T58Y | no signal | 0 of 3 | 0 of 9 |
| T28A+G103A | 1.77 | 3 of 3 | 3 of 9 |
| S35Y+R57H+A101C | no signal | 0 of 3 | 0 of 9 |
| F27N+S53C+S63F | no signal | 0 of 3 | 0 of 9 |
| Y32F+R100H | 0.82 | 3 of 3 | 0 of 9 |